# Binding of CDR-mutated scFvs to a peptide of the spike HR2 region

Antigen: PDVDLGDISGINAS, a 14-residue peptide of the SARS-CoV-2 spike HR2 region.

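This is the validation round: designs drawn from the data on random variants, tested in the same kind of assay. Several design methods are mixed in this list. The scFvs were displayed on barcoded MATa yeast, the peptide on MATalpha yeast. Mating (16 h, 30 °C) was followed by selection of diploids and sequencing of their barcodes. A regression on co-assayed BCL2-family reference pairs converts the normalised counts of each replicate to an apparent Kd. The assay was run in six technical replicates.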

Each scFv is VH, a 15-residue (Gly4Ser)3 linker, VL, as in the parent Ab-14, and differs from it in the CDRs of the heavy chain only.
VH: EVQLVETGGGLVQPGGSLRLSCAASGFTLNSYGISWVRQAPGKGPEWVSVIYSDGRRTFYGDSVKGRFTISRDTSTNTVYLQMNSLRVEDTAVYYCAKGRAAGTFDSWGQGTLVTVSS
VL: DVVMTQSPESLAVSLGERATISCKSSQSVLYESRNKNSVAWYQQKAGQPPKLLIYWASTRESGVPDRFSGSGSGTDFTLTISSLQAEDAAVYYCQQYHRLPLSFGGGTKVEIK

Variants are written as CDR1, CDR2 and CDR3 of the heavy chain (limits as in the source). Parent: GFTLNSYGIS, VIYSDGRRTFYGDSVK, GRAAGTFDS. Values are apparent Kd, the geometric mean of the replicates that gave a signal; lower means stronger binding. "not detected" marks a missing value. The strain was present, yet no cells mated with the target were sequenced in any replicate, which points to weak or no binding. Three control strains display no target. For all heavy chain designs, 1% of the pairings with them gave a signal, with a median of 120 nM and one signal in twenty below 7.0 nM, so weak values seen in few replicates may be background. Also given: how often the same scFv was detected with the empty control strains. A sequence measured in both rounds can read differently, since the two assays cover different ranges. In the paper, a design with two or fewer of six values counts as a poor binder. Of ten entries with the parent sequence, four were seen in most replicates (averages 2.2 nM to 240 nM), three in one and three in none, so single entries are noisy.

| apparent Kd | replicates with signal | signal with controls | CDR-H1 | CDR-H2 | CDR-H3 |
|---|---|---|---|---|---|
| 610 pM | 6 of 6 | 1 of 18 | GFDLDEYGIS | VIYADGMRTAYTDSVK | GNQAGTFDT |
| 3.4 µM | 1 of 6 | 0 of 18 | GFSLNSYGIS | VIYSDGRRTFYGDNVK | GKIAGTFDS |
| 1.4 nM | 6 of 6 | 0 of 18 | GFELNSYGIS | VIYSDGRRTFYGDSVK | GRLAGTFDT |
| 300 nM | 2 of 6 | 0 of 18 | GFTLNKYGIS | VIYADGRRTFYSDSVK | GRAAGTFCS |
| 29 nM | 1 of 6 | 1 of 18 | GFKLNSYGIS | VIYSDGRRTFYADSVK | GKTAGTFDS |
| not detected | 0 of 6 | 0 of 18 | GFTLNNYGIS | VIYSDGRRTAYQDSVK | GKAAGTFPS |
| 36 nM | 4 of 6 | 0 of 18 | GFTLNNYGIS | VIYSDGRRTFYIDSVK | GQEAGTFDS |
| not detected | 0 of 6 | 0 of 18 | GKGLDEYGVS | VIYADGKRHQYAGDVK | GGLAGQFDV |
| 2.5 nM | 6 of 6 | 0 of 18 | GFNLNEYGIS | VIYSDGRRTFYTDSVK | GRFAGTFDS |
| not detected | 0 of 6 | 0 of 18 | GITLNSYGIS | VIYSDGRRTFYQDSVK | GRAAGTSDS |
| not detected | 0 of 6 | 0 of 18 | GFDLNSYGIS | VIYSDGRRTFYGDSAK | GRAAGWFNS |
| 230 pM | 6 of 6 | 0 of 18 | GFDLNEYGIS | VIYADGRRTFYIDSVK | GTNAGTFDD |
| 2.5 nM | 6 of 6 | 1 of 18 | GMTLNEYGIS | VIYSDGRRTFYGDSVK | GRTAGTFDS |
| 690 pM | 6 of 6 | 0 of 18 | GFSLNEYGIS | VIYSDGRRTFYGNSVK | GRTAGTFDS |
| 880 pM | 6 of 6 | 0 of 18 | GFTLNEYGIS | VIYSDGRRTFYTDDVK | GEAAGTFDS |
| not detected | 0 of 6 | 0 of 18 | GKSLDEYGIS | VIYADGSREAYSESFK | GQGAAIFML |
| 5.1 nM | 6 of 6 | 1 of 18 | GFDLNSYGIS | VIYSDGRRTFYADSVK | GQAAGTFDA |
| not detected | 0 of 6 | 0 of 18 | GENLDEYGIS | VIYADGVREAYANNVK | GEQGSYFIT |
| 1.6 nM | 4 of 6 | 0 of 18 | GFSLNSYGIS | VIYSDGRRTFYGDSVK | GQTAGTFDT |
| 540 pM | 6 of 6 | 0 of 18 | GFSLNDYGIS | VIYSDGRRTFYVDSVK | GRTAGTFDS |
| 980 pM | 6 of 6 | 1 of 18 | GFELNSYGIS | VIYSDGRRTFYGDSVK | GQTAGTFDL |
| 2.3 nM | 1 of 6 | 0 of 18 | GFTLNDYGIS | VIYSDGRRTFYIDSVK | GRYAGTFDS |
| 37 nM | 4 of 6 | 0 of 18 | GFTISSYGIS | VIYSDGRRTFYGDSVK | GRAAGTFDS |
| not detected | 0 of 6 | 1 of 18 | GFTLNSYGIS | VIYSDGRRTFYSDSVK | GQAVGTFDT |
| 420 pM | 6 of 6 | 0 of 18 | GFELNEYGIS | VIYSDGRRTFYGDSVK | GKQAGTFDS |
| not detected | 0 of 6 | 0 of 18 | KFTLNSYGIS | VIYSDGYRTFYGDSVK | GRYKGTFDS |
| 430 pM | 6 of 6 | 0 of 18 | GFDLNEYGIS | VIYADGMRTAYANSVK | GNVAGTFDL |
| 2.2 nM | 6 of 6 | 0 of 18 | GFDLNSYGIS | VIYSDGRRTFYGDSVK | GNQAGTFDS |
| 98 pM | 6 of 6 | 0 of 18 | GFDLNEYGIS | VIYADGRRTFYSDSVK | GEIAGTFDA |
| 23 nM | 6 of 6 | 0 of 18 | GFELNMYGIS | VIYSDGRRTFYGDSVK | GQAAGTFDL |
| 1.9 nM | 6 of 6 | 0 of 18 | GFTLNQYGIS | VIYSDGRRTFYSDSVK | GKAAGTFDS |
| not detected | 0 of 6 | 0 of 18 | GFNLDSYGIS | VIYSDGRRTFYSDSVK | GRAAGKFDS |
| 170 pM | 6 of 6 | 0 of 18 | GFPLNEYGIS | VIYADGRRTFYGDSVK | GTAAGTFDS |
| not detected | 0 of 6 | 0 of 18 | GFQLDEYGIS | VIYADGSRTAYADSVK | GAYKFHLVV |
| 170 nM | 3 of 6 | 0 of 18 | GFTIDEYGIS | VIYADGQRVAYDEKFK | GMLVGTFDQ |
| 21 nM | 6 of 6 | 1 of 18 | GFQLNDYGIS | VIYSDGRRTFYSDHVK | GKAAGTFDS |
| 730 pM | 6 of 6 | 0 of 18 | GFSLNDYGIS | VIYSDGRRTFYKDTVK | GRTAGTFDS |
| 27 nM | 6 of 6 | 0 of 18 | GFTLNSYGIS | VIYSDGRRTFYTDDVK | GEAAGTFKS |
| 37 nM | 5 of 6 | 3 of 18 | GFTLNDYGIS | VIYSDGRRTQYSDSVK | GRAAGTFDS |
| 970 pM | 6 of 6 | 0 of 18 | GFNLNEYGIS | VIYSDGRRTFYGDSVK | GRTAGTFDS |
| 30 nM | 1 of 6 | 0 of 18 | GFTLNSYGIS | VIYSDGRRTMYSDSVK | GRAGGTFDS |
| 15 nM | 3 of 6 | 0 of 18 | GFTLNEYGIS | VIYSDGRRTFYTDSVK | GRNPGTFDS |
| 4.8 nM | 5 of 6 | 0 of 18 | GFTLNEYGIS | VIYSDGRRTFYSDSVK | GQKAGTFDS |
| 13 nM | 6 of 6 | 0 of 18 | GFQLNSYGIS | VIYSDGRRTFYGDSVK | GWTAGTFDT |
| 300 pM | 6 of 6 | 0 of 18 | GFNLNEYGIS | VIYADGRRTAYADSVK | GEAAGTFDV |
| not detected | 0 of 6 | 0 of 18 | GFQLNSYGIS | VIYSDGRRTFYVDQVK | GRTAGTFDS |
| 2.6 nM | 6 of 6 | 0 of 18 | GFSLNSYGIS | VIYSDGRRTFYADSVK | GRTAGTFDK |
| not detected | 0 of 6 | 0 of 18 | GEDLLEYGIS | VIYADGIRVAYTNQVK | GNVAGFFTL |
| 12 nM | 6 of 6 | 1 of 18 | GFDLNSYGIS | VIYSDGRRAFYGDSVK | GQAAGTFDS |
| 450 pM | 6 of 6 | 0 of 18 | GFTLNSYGIS | VIYSDGKRTFYSDSVK | GQVAGTFDS |
| 72 pM | 6 of 6 | 0 of 18 | GFDLNEYGIS | VIYADGVRQAYADSVK | GQNAGTFDV |
| 1.1 nM | 6 of 6 | 0 of 18 | GFDLNEYGIS | VIYADGSRTAYVDSVK | GENAGTFDV |
| not detected | 0 of 6 | 0 of 18 | GFDIDEYGIS | VIYADGMRSALINAVK | GTLSGTFIA |
| not detected | 0 of 6 | 0 of 18 | GRTLNSYGIS | VIYSDGRRTFYADSVK | GRAAVTFDS |
| not detected | 0 of 6 | 0 of 18 | GRALNSYGIS | VIYADGQRTFYGDSVK | GRAAGTFDP |
| not detected | 0 of 6 | 0 of 18 | GFQLNEYGIS | VIYADGIRRAYASKVK | GGEDASFDL |
| 200 pM | 6 of 6 | 0 of 18 | GFDLDEYGIS | VIYADGMRTFYADDVK | GNVAGTFDV |
| not detected | 0 of 6 | 0 of 18 | GFTLNSYGIS | VIYSDFRRTFYDDSVK | GQLAGTFDS |
| 490 pM | 6 of 6 | 0 of 18 | GFDLNEYGIS | VIYADGRRTAYADDVK | GNTAGTFDV |
| not detected | 0 of 6 | 1 of 18 | KFTLNDYGIS | VIYSDGRRTFYEDSVK | GRAAFTFDS |
| 300 pM | 6 of 6 | 0 of 18 | GFDLNEYGIS | VIYADGKRTFYSDSVK | GTVAGTFDV |
| 290 pM | 6 of 6 | 0 of 18 | GFDLNEYGIS | VIYADGVRTAYSDKVK | GNVAGTFDL |
| not detected | 0 of 6 | 0 of 18 | GFTLNDYGIS | VIYSDGRRTFYGDSVK | GKAAGTFWS |
| 260 pM | 6 of 6 | 1 of 18 | GFDLNEYGIS | VIYADGRRTFYADSVK | GNQAGTFDQ |
| 530 pM | 6 of 6 | 1 of 18 | GFNLDEYGIS | VIYADGRRTFYQDSVK | GEVAGTFDF |
| not detected | 0 of 6 | 1 of 18 | GFTLKSYGIS | VIYADGRRTFYGDSVK | GRAAGTNDS |
| 13 nM | 5 of 6 | 0 of 18 | GFTLNEYGIS | VIYSDGRRTFYGDSVK | GRLAGTFDT |
| 3.5 nM | 6 of 6 | 1 of 18 | GFDLNSYGIS | VIYSDGRRTFYGDSVK | GNAAGTFDV |
| 540 nM | 1 of 6 | 1 of 18 | GFDLNSYGIS | VIYSDGRRTFYDDSVK | GQVAGKFDS |
| 820 pM | 6 of 6 | 0 of 18 | GFSLNEYGIS | VIYSDGTRTFYSDSVK | GRAAGTFDS |
| 580 pM | 6 of 6 | 0 of 18 | GFTLNEYGIS | VIYSDGRRTFYSDSVK | GRAAGFFMS |
| not detected | 0 of 6 | 0 of 18 | GFLLDEYGIS | VIYADGQRTAYTDDVK | GYYGGIGTI |
| 1.2 nM | 6 of 6 | 0 of 18 | GFTLNDYGIS | VIYSDGRRTFYGDSVK | GRNAGTFDT |
| 550 pM | 6 of 6 | 1 of 18 | GFTLNSYGIS | VIYADGRRTFYGDSVK | GKTAGTFDT |
| 3.0 nM | 5 of 6 | 0 of 18 | GFDLNEYGIS | VIYADGQRTAYTDSVK | GENAGTFDL |
| 130 pM | 6 of 6 | 0 of 18 | GFDLDEYGIS | VIYADGKRTAYADSVK | GNNAGTFDQ |
| 1.5 nM | 6 of 6 | 1 of 18 | GFTLNSYGIS | VIYADGRRTFYGDSVK | GWAAGTFDT |
| 1.6 nM | 6 of 6 | 0 of 18 | GFQLNEYGIS | VIYSDGRRTFYTDSVK | GQAAGTFDL |
| 330 pM | 6 of 6 | 0 of 18 | GFDLDEYGIS | VIYADGMRTAYADTVK | GENAGTFDV |
| 1.2 nM | 6 of 6 | 0 of 18 | GFDLDEYGIS | VIYADGMRTAYADNVK | GENAGTFDL |

Repeated from above, the 5 best binders with a signal in all replicates:

| CDR-H1 | CDR-H2 | CDR-H3 | apparent Kd | replicates with signal | signal with controls |
|---|---|---|---|---|---|
| GFDLNEYGIS | VIYADGVRQAYADSVK | GQNAGTFDV | 72 pM | 6 of 6 | 0 of 18 |
| GFDLNEYGIS | VIYADGRRTFYSDSVK | GEIAGTFDA | 98 pM | 6 of 6 | 0 of 18 |
| GFDLDEYGIS | VIYADGKRTAYADSVK | GNNAGTFDQ | 130 pM | 6 of 6 | 0 of 18 |
| GFPLNEYGIS | VIYADGRRTFYGDSVK | GTAAGTFDS | 170 pM | 6 of 6 | 0 of 18 |
| GFDLDEYGIS | VIYADGMRTFYADDVK | GNVAGTFDV | 200 pM | 6 of 6 | 0 of 18 |

Source: Li et al. 2023 (doi:10.1038/s41467-023-39022-2), MIT Lincoln Laboratory and A-Alpha Bio; data file from the FLAb repository.